{"source": "patent US7045152B2", "about": "“Treating pulmonary disorders with gaseous agent causing repletion of GSNO” (Duke University, priority 1999, dated 2006)", "key": {"cystic fibrosis": {"test_system": "cystic fibrosis", "assay": "Inhaled gas / nebulized treatment of patients with cystic fibrosis (Examples IV, IX, XI, XII)", "assay_type": "in vivo, human"}, "pulmonary hypertension": {"test_system": "pulmonary hypertension", "assay": "Inhaled gas treatment of patients with pulmonary hypertension (Examples I, V)", "details": "Example V, secondary pulmonary hypertension, inhaled 20 ppm in nitrogen"}}}
{"compound": "HNO", "values": [{"measurement": "symptomatic status", "setting": "cystic fibrosis; Example XI, person, cystic fibrosis, labored breathing, 10 ppm in nitrogen", "value": "improvements in their symptomatic status"}]}
{"compound": "thionyldinitrite", "values": [{"measurement": "pulmonary pressures", "setting": "pulmonary hypertension; person, from 70", "value": 60, "unit": "mm Hg"}, {"measurement": "PaO2", "setting": "pulmonary hypertension; from PO2 of 50", "value": 70, "unit": "mm Hg"}]}
{"compound": "CCON=O", "note": "[Ethylnitrite]", "values": [{"measurement": "sputum production", "setting": "cystic fibrosis; Example XII, ethylnitrite 10 parts per million with nebulized Angeli's salt 50 mM/3 cc, day 2", "value": "decreases"}]}
